Where two headings read alike, the source gives them in different places.
Assays:
Experiment in all cases: biochemical
[1] = target: T1, MMP-13 (Homo sapiens, UniProt P45452); settings: recombinant human MMP-13, MCA peptide substrate 4 μM, pH 7.5, room temperature
T1 construct: made in house; host or cells: baculovirus / insect cells

[2] = target: T2, MMP-1 (Homo sapiens, UniProt P03956)
T2 construct: made in house; host or cells: transfected HT-1080 cells (provided by Dr. Harold Welgus, Washington University)
T2 sequence (P03956 100-469): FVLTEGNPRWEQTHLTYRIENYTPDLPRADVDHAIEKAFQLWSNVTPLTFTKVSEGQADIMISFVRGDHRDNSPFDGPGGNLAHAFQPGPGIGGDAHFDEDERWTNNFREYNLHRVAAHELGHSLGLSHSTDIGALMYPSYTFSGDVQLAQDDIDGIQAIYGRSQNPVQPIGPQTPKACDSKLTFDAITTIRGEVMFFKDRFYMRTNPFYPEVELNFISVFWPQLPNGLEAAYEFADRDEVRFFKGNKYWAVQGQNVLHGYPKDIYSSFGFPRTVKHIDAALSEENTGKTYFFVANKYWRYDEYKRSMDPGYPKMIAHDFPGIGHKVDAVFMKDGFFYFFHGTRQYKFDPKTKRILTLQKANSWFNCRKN

[3] = target: T3, MMP-2 (Homo sapiens, UniProt P08253); settings: MMP-2 IC50 (nM), recombinant human MMP-2, MCA peptide substrate 4 μM, pH 7.5, room temperature
T3 construct: made in house; provided by Dr. Gregory Goldberg, Washington University
T3 sequence (P08253 110-660): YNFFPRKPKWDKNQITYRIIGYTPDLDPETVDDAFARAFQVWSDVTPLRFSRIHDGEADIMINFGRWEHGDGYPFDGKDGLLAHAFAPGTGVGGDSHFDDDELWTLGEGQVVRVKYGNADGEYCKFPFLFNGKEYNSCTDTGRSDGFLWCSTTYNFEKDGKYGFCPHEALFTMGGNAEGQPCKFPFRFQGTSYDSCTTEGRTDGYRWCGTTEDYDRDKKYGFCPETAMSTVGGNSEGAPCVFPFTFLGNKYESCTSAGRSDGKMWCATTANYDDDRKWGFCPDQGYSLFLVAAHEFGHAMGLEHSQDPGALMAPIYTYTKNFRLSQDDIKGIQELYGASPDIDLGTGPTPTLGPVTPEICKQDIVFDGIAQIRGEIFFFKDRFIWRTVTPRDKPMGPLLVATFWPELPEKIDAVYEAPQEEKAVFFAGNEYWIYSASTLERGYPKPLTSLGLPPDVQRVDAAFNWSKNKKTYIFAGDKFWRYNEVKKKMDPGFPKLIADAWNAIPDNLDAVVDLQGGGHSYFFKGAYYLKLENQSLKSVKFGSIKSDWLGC

Structure (SMILES)	IC50 ([1]; MMP-13 IC50 (nM))	IC50 [2]	IC50 [3]	IC50 ([1]; read-out: MMP-13 IC50)	IC50 ([2]; read-out: MMP-1 IC50, pH 7.5)
CC(=O)N1CCC(C(=O)NO)(S(=O)(=O)c2ccc(Oc3ccc(OC(F)(F)F)cc3)cc2)CC1 [Example 272, 1-Acetyl-N-hydroxy-4-[[4-[4-(trifluoromethoxy)phenoxy]-phenyl]sulfonyl]-4-piperidinecarboxamide]	0.2 nM	3.6 µM	0.1 nM	–	–
O=C(NO)C1(S(=O)(=O)c2ccc(Oc3ccc(C(F)(F)F)cc3)cc2)CCN(C2CC2)CC1 [Example 269]	0.2 nM	–	–	–	–
O=C(NO)C1(S(=O)(=O)c2ccc(Oc3ccc(C(F)(F)F)cc3)cc2)CCN(C2CC2)CC1 [Example 270]	–	> 10 µM	–	1 nM	–
O=C(NO)C1(S(=O)(=O)c2ccc(Oc3ccc(C(F)(F)F)cc3)cc2)CCN(C2CC2)CC1 [Example 271]	–	–	–	0.3 nM	> 10 µM
